Blank lines part the entries; values can stand above or below the molecule they belong to.
What was measured:
[1] = target: circularly permuted Caspase-2 (unmutated) (human) (UniProt P42575)
[2] = target: circularly permuted Caspase-2 double mutant Asp323Thr/His226Ala (human) (UniProt P42575)

The chains behind the UniProt entries cited, without tags or fusion partners.
UniProt P42575, whole entry, stated change not applied: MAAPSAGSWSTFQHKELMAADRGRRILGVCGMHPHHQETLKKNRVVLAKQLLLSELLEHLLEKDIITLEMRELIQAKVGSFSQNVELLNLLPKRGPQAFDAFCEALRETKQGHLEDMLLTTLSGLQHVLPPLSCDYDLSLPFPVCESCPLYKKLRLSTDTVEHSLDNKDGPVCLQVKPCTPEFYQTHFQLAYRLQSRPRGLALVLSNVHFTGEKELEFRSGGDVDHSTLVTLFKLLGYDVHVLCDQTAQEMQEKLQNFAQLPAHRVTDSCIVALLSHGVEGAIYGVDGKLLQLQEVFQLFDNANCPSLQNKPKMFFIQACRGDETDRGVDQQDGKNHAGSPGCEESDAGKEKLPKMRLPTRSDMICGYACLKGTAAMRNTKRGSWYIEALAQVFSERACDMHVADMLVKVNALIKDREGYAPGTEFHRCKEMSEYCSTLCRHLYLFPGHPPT
UniProt P42575, whole entry H226A/D323T: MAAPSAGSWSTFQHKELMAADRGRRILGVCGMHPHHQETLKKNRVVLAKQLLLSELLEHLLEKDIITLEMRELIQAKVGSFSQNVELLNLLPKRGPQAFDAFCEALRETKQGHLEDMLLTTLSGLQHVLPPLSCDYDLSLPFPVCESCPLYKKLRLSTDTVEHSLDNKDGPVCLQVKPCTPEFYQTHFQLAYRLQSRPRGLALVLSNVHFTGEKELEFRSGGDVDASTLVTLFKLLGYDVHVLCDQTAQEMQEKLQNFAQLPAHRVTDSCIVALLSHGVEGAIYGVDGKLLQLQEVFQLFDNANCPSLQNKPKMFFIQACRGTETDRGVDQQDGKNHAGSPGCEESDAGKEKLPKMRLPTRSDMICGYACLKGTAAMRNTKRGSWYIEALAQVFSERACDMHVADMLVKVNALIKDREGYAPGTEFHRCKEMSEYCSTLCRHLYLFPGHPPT

- K M (Michaelis-Menten kinetics, FRET peptide-based cleavage assay, 1 μM enzyme) [1]: 89 µM
Molecule: Abz-VDVAD-AA-Dap(Dnp) (peptide)

- K M (Michaelis-Menten kinetics, FRET peptide-based cleavage assay, 1 μM enzyme) [1]: 112 µM
Molecule: Abz-VDVAD-GA-Dap(Dnp) (peptide)

- K M (Michaelis-Menten kinetics, FRET peptide-based cleavage assay, 1 μM enzyme) [1]: 71 µM
Molecule: Abz-VDVAD-IA-Dap(Dnp) (peptide)

- K M (Michaelis-Menten kinetics, FRET peptide-based cleavage assay, 1 μM enzyme) [1]: 287 µM
Molecule: Abz-VDVAD-LA-Dap(Dnp) (peptide)

- K M (Michaelis-Menten kinetics, FRET peptide-based cleavage assay, 1 μM enzyme) [1]: 305 µM
Molecule: Abz-VDVAD-PA-Dap(Dnp) (peptide)

- K M (Michaelis-Menten kinetics, FRET peptide-based cleavage assay, 1 μM enzyme) [1]: 75 µM
Molecule: Abz-VDVAD-TA-Dap(Dnp) (peptide)

- K M (Michaelis-Menten kinetics, FRET peptide-based cleavage assay, 1 μM enzyme) [1]: 64 µM
Molecule: Abz-VDVAD-VA-Dap(Dnp) (peptide)

- K M (Michaelis-Menten kinetics, FRET peptide-based cleavage assay, 1 μM enzyme) [2]: 67 µM
B1: Abz-VDVAD-IA-Dap(Dnp) (peptide)
peptide: VDVADIA
modifications: 2-aminobenzoyl (Abz) on the N-terminus; C-terminal diamino-propionic acid (Dap) carrying 2,4-dinitrophenyl (Dnp)

Source: paper PMC7497161
